Reference: publication PMC4360375 (Journal of Medicinal Chemistry, 2015)

Target: T1, rGAT1 (Rattus norvegicus, UniProt P23978)
T1 construct: Y prefix of 'YrGAT-1' (own knowledge: yellow fluorescent protein, YFP, fused to rGAT1 in this group's constructs); expressed in transfected cells; host or cells: HEK293
Test: [3H]-GABA uptake inhibition assay in HEK293 cells stably expressing rGAT1
Assay type: cell-based
Details: HEK293, read-out: % uptake (remaining uptake of [3H]-GABA)

N[C@@H](Cc1ccc(Oc2cc(I)c(O)c(I)c2)c(I)c1)C(=O)O [27d, 3,3',5'-triiodothyronine]
remaining activity at 100 µM: 88.6%
